Data: PMC8957230 (ADMET & DMPK, 2019)

Conditions: pH 4 phthalate buffer; initial (bulk) pH 3.96; average of two

With `CC(=O)N1CCN(c2ccc(OCC3COC(Cn4ccnc4)(c4ccc(Cl)cc4Cl)O3)cc2)CC1` (stereo not shown) the “pH h=0 (slurry pH)” value was 4.38.
